Where two headings read alike, the source gives them in different places.
What was measured:
mutant Hex A = mutant Hex A (Homo sapiens, UniProt P06865+P07686)
Hex A = Hex A (Homo sapiens, UniProt P06865+P07686); test: Hex A inhibition (IC50 from dose response curves of Hex A residual activity);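 also: remaining Hex A enzyme activity recorded across rising inhibitor doses, with dose response curves run at pH 6.5 and again at pH 4.5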

The chains behind the UniProt entries cited, without tags or fusion partners. Where a name states a change or a piece, a line headed by the entry shows the natural chain unless it says otherwise. A line that says so, or that is headed by a name, gives the form on record, which may keep a tag or linker. Residues count along the entry.
UniProt P06865, with tags, fused parts or gaps limits assumed: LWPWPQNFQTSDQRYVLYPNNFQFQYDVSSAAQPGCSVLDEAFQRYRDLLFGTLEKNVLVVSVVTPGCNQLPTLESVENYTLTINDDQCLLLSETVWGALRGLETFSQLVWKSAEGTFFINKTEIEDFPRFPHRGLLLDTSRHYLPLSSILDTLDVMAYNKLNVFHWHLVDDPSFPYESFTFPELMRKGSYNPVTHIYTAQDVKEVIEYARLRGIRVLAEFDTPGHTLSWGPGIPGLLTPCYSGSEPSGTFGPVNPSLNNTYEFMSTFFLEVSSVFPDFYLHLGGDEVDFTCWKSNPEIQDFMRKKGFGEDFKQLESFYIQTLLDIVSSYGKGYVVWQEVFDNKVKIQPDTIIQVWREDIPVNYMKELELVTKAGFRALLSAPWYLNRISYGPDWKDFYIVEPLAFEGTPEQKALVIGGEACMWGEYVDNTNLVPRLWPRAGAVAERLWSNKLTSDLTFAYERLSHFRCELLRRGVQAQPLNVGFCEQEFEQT
UniProt P06865, 89-529 limits assumed: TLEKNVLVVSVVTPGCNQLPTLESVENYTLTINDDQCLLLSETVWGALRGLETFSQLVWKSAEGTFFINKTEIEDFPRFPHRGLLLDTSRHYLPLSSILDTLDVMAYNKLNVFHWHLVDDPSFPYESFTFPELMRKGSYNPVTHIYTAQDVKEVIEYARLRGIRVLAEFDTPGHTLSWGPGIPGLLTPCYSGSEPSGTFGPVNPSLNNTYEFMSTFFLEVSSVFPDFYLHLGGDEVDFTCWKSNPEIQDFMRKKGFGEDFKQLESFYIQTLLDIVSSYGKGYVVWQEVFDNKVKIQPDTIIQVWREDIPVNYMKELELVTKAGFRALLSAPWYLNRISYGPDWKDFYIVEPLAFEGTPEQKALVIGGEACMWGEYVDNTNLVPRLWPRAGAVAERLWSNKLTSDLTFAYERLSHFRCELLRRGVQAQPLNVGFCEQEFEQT
UniProt P07686, with tags, fused parts or gaps limits assumed: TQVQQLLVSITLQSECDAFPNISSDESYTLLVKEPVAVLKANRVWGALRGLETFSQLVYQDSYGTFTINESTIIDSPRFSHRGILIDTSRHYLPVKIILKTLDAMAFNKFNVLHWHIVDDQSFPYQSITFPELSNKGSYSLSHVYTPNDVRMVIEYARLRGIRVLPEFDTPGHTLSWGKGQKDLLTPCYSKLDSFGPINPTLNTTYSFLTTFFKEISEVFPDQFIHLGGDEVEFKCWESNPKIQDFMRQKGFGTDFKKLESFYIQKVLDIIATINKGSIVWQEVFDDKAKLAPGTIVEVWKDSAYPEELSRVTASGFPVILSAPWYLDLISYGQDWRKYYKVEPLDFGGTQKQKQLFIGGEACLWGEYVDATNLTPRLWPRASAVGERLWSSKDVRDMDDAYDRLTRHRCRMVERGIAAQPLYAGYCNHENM
UniProt P07686, 122-311 limits assumed: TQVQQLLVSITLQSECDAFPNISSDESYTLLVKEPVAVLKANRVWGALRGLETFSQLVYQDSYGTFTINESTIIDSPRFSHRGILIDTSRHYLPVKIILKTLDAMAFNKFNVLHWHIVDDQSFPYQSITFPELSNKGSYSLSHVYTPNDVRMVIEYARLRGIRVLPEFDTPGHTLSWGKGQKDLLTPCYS
UniProt P07686, 315-556 limits assumed: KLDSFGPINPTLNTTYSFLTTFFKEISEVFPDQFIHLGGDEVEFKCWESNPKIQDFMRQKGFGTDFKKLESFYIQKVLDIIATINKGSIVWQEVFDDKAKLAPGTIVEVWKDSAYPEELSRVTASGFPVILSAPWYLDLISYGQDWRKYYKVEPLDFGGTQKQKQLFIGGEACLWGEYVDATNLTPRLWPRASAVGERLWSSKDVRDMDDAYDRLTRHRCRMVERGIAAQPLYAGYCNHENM

Question: With `CCc1nc(N)nc(N)c1-c1ccc(OC)cc1` as the molecule, how does the EC50 (mutant Hex A; Hex A rescue, determined from graphs of FIGS. 5-7) read?
Answer: 7.2 µM

Question: And the “Max Increase” value (mutant Hex A; maximum increase in Hex A activity relative to untreated cells (=1))?
Answer: 1.4

Question: What about the “Range of Increase” value (mutant Hex A; range of increase in Hex A activity) of the same molecule?
Answer: 4

Question: And the IC50 (Hex A; read-out: IC50 (μM ± Err), Hex A inhibition, values determined in Example 3, pH not given)?
Answer: 23 µM

Question: And the IC50 (Hex A; without error, pH not stated)?
Answer: 23.1 µM
